Measured values from ChEMBL document CHEMBL2176894, “Cyanobacterial peptides as a prototype for the design of potent β-secretase inhibitors and the development of selective chemical probes for other aspartic proteases” (J Med Chem, 2012).

By UniProt entry, the sequences of proteins in these tests, tags left out. Residues count along the entry.
UniProt P07339, 65-162 limits assumed: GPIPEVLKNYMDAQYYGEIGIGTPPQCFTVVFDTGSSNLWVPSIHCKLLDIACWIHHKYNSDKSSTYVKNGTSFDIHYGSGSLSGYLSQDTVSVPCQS
UniProt P07339, 169-412 limits assumed: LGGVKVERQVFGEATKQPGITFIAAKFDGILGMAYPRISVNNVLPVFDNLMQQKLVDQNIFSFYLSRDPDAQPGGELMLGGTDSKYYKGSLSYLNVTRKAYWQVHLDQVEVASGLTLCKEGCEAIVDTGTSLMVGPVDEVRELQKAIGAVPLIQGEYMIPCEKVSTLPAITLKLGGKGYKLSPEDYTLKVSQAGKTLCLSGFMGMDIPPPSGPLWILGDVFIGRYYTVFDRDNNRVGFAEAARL

Biological target: Cathepsin D (Homo sapiens, UniProt P07339)
Experiment: Inhibition of cathepsin D by fluorescence assay

COC(=O)[C@@H]1CCCN1C(=O)[C@H](Cc1ccccc1)N(C)C(=O)[C@@H](C)NC(=O)[C@H](CC(C)C)NC(=O)C[C@H](O)[C@H](Cc1ccccc1)NC(=O)[C@H](CCC(N)=O)N(C)C(=O)[C@@H](NC(=O)[C@H](C)O)C(C)C
IC50: 3.48 µM

COC(=O)[C@@H]1CCCN1C(=O)[C@@H](Cc1ccccc1)N(C)C(=O)[C@H](C)NC(=O)[C@H](CC(C)C)NC(=O)C[C@H](O)[C@H](Cc1ccccc1)NC(=O)[C@H](CCC(N)=O)N(C)C(=O)[C@@H](NC(=O)[C@H](C)O)C(C)C [TASIAMIDE B]
IC50: 0.251 µM

COC(=O)[C@@H]1CCCN1C(=O)[C@@H](Cc1ccccc1)N(C)C(=O)[C@@H](C)NC(=O)[C@H](CC(C)C)NC(=O)C[C@H](O)[C@H](Cc1ccccc1)NC(=O)[C@H](CCC(N)=O)N(C)C(=O)[C@@H](NC(=O)[C@H](C)O)C(C)C
IC50: 7.59 µM

COC(=O)[C@@H]1CCCN1C(=O)[C@@H](Cc1ccccc1)N(C)C(=O)[C@H](C)NC(=O)[C@H](CC(C)C)NC(=O)C[C@H](O)[C@H](Cc1ccccc1)NC(=O)[C@H](CCC(N)=O)N(C)C(=O)[C@@H](NC(=O)[C@H](C)O)C(C)C
IC50: 0.182 µM
